The values that follow are results of earlier work, collected in US20080317886A1, “Compositions for Preventing and Reducing Delayed Onset Muscle Soreness” (priority 2005, published 2008).

As to “calcium beta-hydroxy-beta-methylbutyrate [CaHMB]”, the solubility in water entry is “soluble in water”.
